What was measured:
Assay in all cases: Kinase profiling in a biochemical assay panel (mobility shift assays and ELISA), %-inhibition at 1 μM; selectivity entropy
Details in all cases: 1 µM
[1] = target: panel of more than 300 wild-type and mutant kinases (313 kinase panel) (Homo sapiens, UniProt Q13554)
[2] = target: panel of more than 300 wild-type and mutant kinases (313 kinase panel) (Homo sapiens, UniProt O14733)
[3] = target: panel of more than 300 wild-type and mutant kinases (313 kinase panel) (Homo sapiens, UniProt P12931)
[4] = target: panel of more than 300 wild-type and mutant kinases (313 kinase panel) (Homo sapiens, UniProt P14616)
[5] = target: panel of more than 300 wild-type and mutant kinases (313 kinase panel) (Homo sapiens, UniProt P15056)
[6] = target: panel of more than 300 wild-type and mutant kinases (313 kinase panel) (Homo sapiens, UniProt P17252)
[7] = target: panel of more than 300 wild-type and mutant kinases (313 kinase panel) (Homo sapiens, UniProt P41279)
[8] = target: panel of more than 300 wild-type and mutant kinases (313 kinase panel) (Homo sapiens, UniProt P51812)
[9] = target: panel of more than 300 wild-type and mutant kinases (313 kinase panel) (Homo sapiens, UniProt Q05513)
[10] = target: panel of more than 300 wild-type and mutant kinases (313 kinase panel) (Homo sapiens, UniProt Q08345)
[11] = target: panel of more than 300 wild-type and mutant kinases (313 kinase panel) (Homo sapiens, UniProt Q15208)
[12] = target: panel of more than 300 wild-type and mutant kinases (313 kinase panel) (Homo sapiens, UniProt Q96RG2)
[13] = target: panel of more than 300 wild-type and mutant kinases (313 kinase panel) (Homo sapiens, UniProt Q9H422)
[14] = target: panel of more than 300 wild-type and mutant kinases (313 kinase panel) (Homo sapiens, UniProt Q9UM73, R1275Q)

Sequences of proteins named here, by UniProt entry; tags and fusion partners are left off. Residues count along the entry.
UniProt O14733, whole entry, stated change not applied: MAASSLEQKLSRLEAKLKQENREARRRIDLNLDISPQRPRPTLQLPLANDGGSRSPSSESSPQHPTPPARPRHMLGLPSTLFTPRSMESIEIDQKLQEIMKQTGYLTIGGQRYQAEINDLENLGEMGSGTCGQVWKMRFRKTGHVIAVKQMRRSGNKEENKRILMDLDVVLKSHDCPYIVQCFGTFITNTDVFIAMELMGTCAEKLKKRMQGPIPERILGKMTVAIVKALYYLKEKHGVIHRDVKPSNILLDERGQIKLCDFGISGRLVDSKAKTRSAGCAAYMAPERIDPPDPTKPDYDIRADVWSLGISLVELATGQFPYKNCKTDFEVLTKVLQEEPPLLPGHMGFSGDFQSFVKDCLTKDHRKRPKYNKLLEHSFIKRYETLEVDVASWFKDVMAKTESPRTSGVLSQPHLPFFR
UniProt P14616, 27-1297, stated change not applied: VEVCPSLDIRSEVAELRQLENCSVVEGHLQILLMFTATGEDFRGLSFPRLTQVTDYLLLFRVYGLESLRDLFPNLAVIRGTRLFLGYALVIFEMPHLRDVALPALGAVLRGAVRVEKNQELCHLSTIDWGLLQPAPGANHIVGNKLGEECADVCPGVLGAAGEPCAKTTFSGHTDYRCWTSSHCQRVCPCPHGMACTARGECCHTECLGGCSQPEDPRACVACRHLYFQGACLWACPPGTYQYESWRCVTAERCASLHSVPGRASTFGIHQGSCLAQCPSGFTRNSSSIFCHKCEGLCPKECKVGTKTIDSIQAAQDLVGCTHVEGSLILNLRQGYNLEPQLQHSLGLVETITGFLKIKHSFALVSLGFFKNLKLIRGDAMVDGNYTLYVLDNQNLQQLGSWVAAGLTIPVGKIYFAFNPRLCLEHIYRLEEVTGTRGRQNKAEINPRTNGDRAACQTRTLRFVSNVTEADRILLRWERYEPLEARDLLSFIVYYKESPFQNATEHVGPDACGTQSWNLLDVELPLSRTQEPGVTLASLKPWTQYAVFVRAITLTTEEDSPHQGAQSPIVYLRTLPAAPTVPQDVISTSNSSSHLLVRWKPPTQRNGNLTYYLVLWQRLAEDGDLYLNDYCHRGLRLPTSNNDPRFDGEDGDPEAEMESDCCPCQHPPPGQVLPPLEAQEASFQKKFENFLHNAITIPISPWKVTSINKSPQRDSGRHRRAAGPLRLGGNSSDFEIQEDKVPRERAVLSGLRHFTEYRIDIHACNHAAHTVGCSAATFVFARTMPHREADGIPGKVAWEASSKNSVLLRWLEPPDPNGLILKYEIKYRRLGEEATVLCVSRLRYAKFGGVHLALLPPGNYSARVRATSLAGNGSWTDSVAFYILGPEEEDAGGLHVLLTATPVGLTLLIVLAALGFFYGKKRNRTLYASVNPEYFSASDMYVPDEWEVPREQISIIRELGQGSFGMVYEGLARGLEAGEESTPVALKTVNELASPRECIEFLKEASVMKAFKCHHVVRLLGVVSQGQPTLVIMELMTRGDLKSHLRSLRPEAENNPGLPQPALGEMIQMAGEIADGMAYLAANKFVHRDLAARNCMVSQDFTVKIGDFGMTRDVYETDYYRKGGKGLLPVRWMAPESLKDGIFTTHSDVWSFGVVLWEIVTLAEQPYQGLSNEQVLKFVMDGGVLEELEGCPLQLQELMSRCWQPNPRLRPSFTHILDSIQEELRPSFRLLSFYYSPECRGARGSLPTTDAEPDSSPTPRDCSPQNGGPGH
UniProt P41279, whole entry, stated change not applied: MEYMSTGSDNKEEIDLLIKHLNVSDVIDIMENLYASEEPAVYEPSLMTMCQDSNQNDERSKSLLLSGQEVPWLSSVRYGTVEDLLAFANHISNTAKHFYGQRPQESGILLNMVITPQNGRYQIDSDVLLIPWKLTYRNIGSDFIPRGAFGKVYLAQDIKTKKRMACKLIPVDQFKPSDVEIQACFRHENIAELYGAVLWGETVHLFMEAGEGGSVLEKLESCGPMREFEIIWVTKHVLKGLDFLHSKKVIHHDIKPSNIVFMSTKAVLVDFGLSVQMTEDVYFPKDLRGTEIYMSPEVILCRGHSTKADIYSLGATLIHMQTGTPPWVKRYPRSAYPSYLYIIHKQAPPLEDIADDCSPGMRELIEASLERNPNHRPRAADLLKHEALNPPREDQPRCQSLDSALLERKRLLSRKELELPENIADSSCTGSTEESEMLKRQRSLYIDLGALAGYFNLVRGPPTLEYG
UniProt Q05513, whole entry, stated change not applied: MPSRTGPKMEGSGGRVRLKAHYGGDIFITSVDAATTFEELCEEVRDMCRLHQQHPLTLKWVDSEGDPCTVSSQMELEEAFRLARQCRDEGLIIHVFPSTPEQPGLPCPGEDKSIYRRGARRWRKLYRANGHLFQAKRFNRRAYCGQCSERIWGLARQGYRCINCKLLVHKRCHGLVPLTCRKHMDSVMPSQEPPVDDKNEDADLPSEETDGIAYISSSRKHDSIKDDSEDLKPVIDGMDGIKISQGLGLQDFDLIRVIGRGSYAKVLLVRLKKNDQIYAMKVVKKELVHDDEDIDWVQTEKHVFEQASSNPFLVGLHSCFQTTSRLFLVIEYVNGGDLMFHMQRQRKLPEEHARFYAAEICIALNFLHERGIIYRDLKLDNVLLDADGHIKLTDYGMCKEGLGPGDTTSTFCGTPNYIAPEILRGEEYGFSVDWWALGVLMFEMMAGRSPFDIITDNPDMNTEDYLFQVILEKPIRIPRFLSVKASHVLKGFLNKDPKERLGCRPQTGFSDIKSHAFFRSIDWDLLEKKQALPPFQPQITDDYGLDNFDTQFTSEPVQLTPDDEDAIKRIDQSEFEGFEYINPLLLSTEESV
UniProt Q15208, whole entry, stated change not applied: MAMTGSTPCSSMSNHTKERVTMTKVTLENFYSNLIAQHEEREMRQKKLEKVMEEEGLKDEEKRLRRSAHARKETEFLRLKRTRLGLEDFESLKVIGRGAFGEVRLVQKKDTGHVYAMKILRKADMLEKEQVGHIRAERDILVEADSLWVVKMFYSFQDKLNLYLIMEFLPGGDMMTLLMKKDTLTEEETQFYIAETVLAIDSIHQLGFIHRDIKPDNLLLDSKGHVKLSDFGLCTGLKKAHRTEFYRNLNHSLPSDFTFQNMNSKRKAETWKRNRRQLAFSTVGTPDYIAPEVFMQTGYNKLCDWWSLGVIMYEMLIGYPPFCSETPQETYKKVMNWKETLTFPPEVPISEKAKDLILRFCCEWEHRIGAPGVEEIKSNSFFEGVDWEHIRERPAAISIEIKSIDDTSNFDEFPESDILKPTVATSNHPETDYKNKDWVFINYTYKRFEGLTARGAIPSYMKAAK
UniProt Q96RG2, whole entry, stated change not applied: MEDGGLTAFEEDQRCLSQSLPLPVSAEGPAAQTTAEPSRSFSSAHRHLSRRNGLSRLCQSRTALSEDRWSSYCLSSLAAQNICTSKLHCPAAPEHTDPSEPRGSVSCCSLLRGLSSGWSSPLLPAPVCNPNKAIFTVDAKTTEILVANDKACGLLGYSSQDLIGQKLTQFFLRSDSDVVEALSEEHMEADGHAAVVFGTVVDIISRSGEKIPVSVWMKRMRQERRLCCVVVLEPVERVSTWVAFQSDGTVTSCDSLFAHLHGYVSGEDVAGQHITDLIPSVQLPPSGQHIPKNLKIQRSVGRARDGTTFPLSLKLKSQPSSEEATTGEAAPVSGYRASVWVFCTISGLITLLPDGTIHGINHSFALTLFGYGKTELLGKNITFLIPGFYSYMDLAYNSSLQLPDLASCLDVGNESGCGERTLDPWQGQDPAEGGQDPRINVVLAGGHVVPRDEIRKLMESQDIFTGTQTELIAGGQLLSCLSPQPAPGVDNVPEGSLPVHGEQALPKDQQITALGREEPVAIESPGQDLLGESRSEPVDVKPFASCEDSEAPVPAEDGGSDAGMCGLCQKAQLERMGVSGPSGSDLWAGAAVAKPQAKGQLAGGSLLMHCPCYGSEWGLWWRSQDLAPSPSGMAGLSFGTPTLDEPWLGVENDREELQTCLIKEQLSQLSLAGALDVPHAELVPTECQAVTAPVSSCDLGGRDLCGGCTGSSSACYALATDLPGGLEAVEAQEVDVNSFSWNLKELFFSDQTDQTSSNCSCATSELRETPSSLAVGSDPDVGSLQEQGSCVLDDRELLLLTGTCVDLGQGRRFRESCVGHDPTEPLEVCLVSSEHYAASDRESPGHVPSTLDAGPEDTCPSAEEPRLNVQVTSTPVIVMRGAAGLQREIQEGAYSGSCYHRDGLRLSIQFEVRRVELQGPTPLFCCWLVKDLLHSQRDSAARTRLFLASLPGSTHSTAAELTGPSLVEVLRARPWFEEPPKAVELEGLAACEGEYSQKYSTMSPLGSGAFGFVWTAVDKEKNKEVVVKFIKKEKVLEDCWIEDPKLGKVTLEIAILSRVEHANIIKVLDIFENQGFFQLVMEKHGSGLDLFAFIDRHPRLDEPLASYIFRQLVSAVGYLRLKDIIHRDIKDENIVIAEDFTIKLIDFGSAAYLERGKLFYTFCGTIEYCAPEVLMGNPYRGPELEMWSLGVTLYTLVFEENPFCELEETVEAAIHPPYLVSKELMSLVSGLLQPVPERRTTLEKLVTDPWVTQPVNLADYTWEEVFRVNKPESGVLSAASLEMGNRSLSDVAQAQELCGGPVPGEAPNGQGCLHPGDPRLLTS
UniProt Q9H422, whole entry, stated change not applied: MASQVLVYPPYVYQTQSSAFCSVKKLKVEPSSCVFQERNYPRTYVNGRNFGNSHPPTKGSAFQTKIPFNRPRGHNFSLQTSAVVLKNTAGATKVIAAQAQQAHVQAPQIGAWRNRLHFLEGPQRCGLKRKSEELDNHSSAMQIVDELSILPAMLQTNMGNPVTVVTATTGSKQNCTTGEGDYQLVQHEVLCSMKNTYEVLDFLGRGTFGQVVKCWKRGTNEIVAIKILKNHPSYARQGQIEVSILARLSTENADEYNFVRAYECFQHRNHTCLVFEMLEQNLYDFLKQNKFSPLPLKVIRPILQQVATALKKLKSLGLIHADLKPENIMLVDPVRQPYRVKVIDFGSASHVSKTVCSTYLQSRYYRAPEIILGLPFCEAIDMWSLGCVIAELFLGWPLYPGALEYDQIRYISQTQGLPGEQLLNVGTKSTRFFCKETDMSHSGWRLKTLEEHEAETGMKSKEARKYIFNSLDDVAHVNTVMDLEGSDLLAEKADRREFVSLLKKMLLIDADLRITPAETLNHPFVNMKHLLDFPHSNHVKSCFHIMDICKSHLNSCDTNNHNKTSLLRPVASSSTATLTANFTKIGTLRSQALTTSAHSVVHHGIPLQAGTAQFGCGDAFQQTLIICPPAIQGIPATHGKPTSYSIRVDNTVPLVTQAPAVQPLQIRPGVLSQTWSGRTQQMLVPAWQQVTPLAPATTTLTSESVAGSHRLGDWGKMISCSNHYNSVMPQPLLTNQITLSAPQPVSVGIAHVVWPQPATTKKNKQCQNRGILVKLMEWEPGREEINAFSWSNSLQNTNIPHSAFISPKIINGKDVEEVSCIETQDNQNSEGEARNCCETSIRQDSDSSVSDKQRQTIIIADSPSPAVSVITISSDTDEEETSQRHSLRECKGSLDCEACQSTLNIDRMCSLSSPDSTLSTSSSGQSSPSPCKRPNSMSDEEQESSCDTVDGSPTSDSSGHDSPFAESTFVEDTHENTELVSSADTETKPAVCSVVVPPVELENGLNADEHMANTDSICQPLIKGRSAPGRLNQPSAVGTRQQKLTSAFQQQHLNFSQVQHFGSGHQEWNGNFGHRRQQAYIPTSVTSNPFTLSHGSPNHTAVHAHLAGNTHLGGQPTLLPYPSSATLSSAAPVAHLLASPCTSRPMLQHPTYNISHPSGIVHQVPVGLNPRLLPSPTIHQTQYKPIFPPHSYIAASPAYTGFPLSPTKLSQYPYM

Structure (SMILES)	%-inhibition, CaMK2β [1]	%-inhibition of MAP2K7 [2]	%-inhibition of SRC [3]	%-inhibition of IRR [4]	%-inhibition, BRAF [5]	%-inhibition of PKCα [6]	%-inhibition of COT [7]	%-inhibition of RSK2 [8]	%-inhibition of PKCζ [9]	%-inhibition of DDR1 [10]	%-inhibition of NDR1 [11]	%-inhibition of PASK [12]	%-inhibition of HIPK3 [13]	%-inhibition, ALK(R1275Q) [14]
COc1cc2ncnc(Nc3ccc(F)c(Cl)c3)c2cc1OCCCN1CCOCC1 [gefitinib]	-5%	–	–	–	–	–	–	–	–	–	–	–	–	–
C[C@@H]1CCN(C(=O)CC#N)C[C@@H]1N(C)c1ncnc2[nH]ccc12 [tofacitinib]	–	3%	7%	-4%	6.51%	11%	6%	2.57%	13%	7%	22%	-1.41%	-7.6%	2.84%
